Test results: patent US11554120B2, “1H-pyrazolo[4,3-d]pyrimidine compounds as toll-like receptor 7 (TLR7) agonists and methods and uses therefor” (BRISTOL-MYERS SQUIBB COMPANY, priority 2018, dated 2023)

Sequences of proteins named here, by UniProt entry; tags and fusion partners are left off. Residues count along the entry.
UniProt Q9NYK1, 27-1049 limits assumed: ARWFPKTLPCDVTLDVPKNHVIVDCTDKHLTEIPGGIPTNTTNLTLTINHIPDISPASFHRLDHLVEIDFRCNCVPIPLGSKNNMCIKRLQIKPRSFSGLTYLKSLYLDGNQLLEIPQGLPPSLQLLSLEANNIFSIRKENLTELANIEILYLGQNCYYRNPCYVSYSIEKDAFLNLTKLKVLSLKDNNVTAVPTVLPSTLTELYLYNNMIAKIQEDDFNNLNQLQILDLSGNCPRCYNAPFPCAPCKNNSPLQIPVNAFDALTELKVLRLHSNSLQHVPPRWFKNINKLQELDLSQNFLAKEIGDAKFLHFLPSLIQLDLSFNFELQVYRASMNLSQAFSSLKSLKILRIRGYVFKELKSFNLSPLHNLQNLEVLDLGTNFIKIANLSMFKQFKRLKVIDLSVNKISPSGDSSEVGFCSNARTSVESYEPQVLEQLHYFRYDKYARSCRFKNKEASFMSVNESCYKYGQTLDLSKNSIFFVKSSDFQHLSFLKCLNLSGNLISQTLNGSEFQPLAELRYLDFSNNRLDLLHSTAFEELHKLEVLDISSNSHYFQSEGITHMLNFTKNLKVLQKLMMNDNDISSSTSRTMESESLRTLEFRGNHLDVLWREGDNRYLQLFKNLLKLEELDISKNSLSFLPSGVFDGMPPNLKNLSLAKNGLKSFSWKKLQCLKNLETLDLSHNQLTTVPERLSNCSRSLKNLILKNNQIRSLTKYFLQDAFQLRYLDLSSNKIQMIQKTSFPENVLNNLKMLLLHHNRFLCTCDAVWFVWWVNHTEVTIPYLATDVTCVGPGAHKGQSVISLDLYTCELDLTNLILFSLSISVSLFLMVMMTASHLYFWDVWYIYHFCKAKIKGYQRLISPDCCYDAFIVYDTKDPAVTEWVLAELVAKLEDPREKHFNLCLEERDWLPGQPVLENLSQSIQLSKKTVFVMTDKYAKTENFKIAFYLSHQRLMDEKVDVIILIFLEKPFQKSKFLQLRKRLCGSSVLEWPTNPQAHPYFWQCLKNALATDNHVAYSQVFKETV

Molecular target: human TLR7 (Homo sapiens, UniProt Q9NYK1)
Assay: Human TLR7 agonist activity assay (HEK-Blue TLR7 SEAP reporter)
Assay type: cell-based
Conditions: read-out: hTLR7 EC50, HEK-Blue TLR7 cells, 18 h treatment, in some instances average of plural assays

With `CCCCNc1nc(N)nc2cnn(Cc3ccc(Oc4ccc(CN5CCC(O)CC5)cc4)cc3OC)c12` the EC50 was 13.1 nM.
